## Antibody variant affinities, Ab-95 light chain, assay 2

Values reported by Engelhart et al. 2022, doi:10.1038/s41597-022-01779-4 (FLAb copy).

Target: peptide PDVDLGDISGINAS, taken from heptad repeat 2 (HR2) of SARS-CoV-2 spike.

Each scFv is VH, the linker GGGGSGGGGSGGGGS, VL, as in the parent Ab-95, and differs from it in the CDRs of the light chain only.
VH: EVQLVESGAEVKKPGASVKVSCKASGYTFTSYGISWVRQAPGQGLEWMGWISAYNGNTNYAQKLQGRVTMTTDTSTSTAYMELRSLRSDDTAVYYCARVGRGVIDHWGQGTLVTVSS
VL: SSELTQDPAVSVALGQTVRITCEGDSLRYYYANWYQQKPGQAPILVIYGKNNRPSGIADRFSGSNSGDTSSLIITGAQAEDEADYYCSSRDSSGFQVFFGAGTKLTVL

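Phage display of a naive human antibody library on the peptide gave the parent. The library (AAYL52) carries one to three amino acid substitutions per variant, with no insertions or deletions. Affinity was read by AlphaSeq, a pooled yeast mating assay with surface-displayed partners. The frequency of each diploid, read from paired DNA barcodes, reflects how well the two displayed proteins bind. Each replicate has its own calibration line, from reference interactions of the BCL2 family. Mating was done three times.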

Changes read parent residue, position, new residue, counted from the first residue of the VL shown.
Every variant below is changed at G49 of the VL (sequential numbering).
Numbers give log10(Kd / nM), so 0 is 1 nM and 3 is 1 µM. Smaller is tighter.
Where no diploid with the target was found in that replicate, the entry reads "ND": below detection, most likely a poor binder, though not proof of it.
Background: pairings of library AAYL52 with three empty control strains gave a value in 28% of cases (median 3.91, 5th percentile 2.90). Values in that range, when seen in few replicates, are hard to tell from nonspecific mating.

The variant G49F R53Y S92P gave 4.13, ND, ND.
The variant G24Y G49W S92R gave 3.92, ND, ND.
The variant Y31H G49D P54N gave 1.67, 1.72, 1.32.
The variant G49M S88I gave ND, ND, ND.
The variant N33E G49M N51S gave ND, ND, ND.
The variant S26Q G49F S92P gave ND, 5.68, 2.74.
The variant R28S Y29M G49P gave 3.84, 3.62, 4.16.
The variant Y29R G49S S89I gave ND, ND, ND.
The variant E23T G49S gave 3.12, 2.77, 2.67.
The variant D25P G49Y F98C gave 4.41, ND, 3.58.
The variant Y31V G49D P54E gave ND, ND, ND.
The variant G49K N52Q R53A gave 5.73, 4.64, ND.
The variant G49K R90W S92F gave ND, ND, ND.
The variant E23T G49L S92A gave 4.76, 4.83, 3.28.
The variant Y30T G49F S55A gave 3.52, 3.80, 4.28.
The variant R28T G49I S55K gave 3.54, 4.74, ND.
The variant G49C G94Y F98V gave ND, ND, ND.
The variant Y29N G49T R53H gave 3.58, 5.89, ND.
The variant Y30V G49Q P54I gave ND, ND, ND.
The variant G49S P54A G94W gave 3.15, 3.58, 2.62.
The variant A32P N33P G49N gave 5.36, ND, 4.25.
The variant N33Y G49T N51F gave ND, ND, 4.67.
The variant Y31W G49D D91N gave ND, ND, ND.
The variant G49T P54C V97R gave 3.81, ND, 4.30.
The variant N33H G49S V97H gave ND, 5.56, ND.
The variant G49K S92D gave ND, ND, 3.65.
The variant S26N G49S N51L gave 4.44, ND, ND.
The variant G49I R53N S93W gave 5.55, 5.99, ND.
The variant G49F G94A F98D gave ND, ND, ND.
The variant A32M G49E G94R gave ND, ND, ND.
The variant G49H gave 3.42, 3.04, 4.22.
The variant D25A G49L S55R gave 4.98, ND, 4.19.
The variant N33L G49D R53E gave ND, ND, 3.27.
The variant S26D G49L N52D gave ND, 3.89, ND.
The variant G24H G49M G94M gave ND, 5.41, ND.
The variant A32F G49L S55R gave 4.21, 5.75, ND.
The variant R28A G49M S55N gave ND, ND, ND.
The variant E23Q G24W G49L gave ND, ND, ND.
The variant A32I G49D N51K gave ND, ND, ND.
The variant G24W N33G G49K gave ND, 4.17, ND.
The variant Y29D G49P K50R gave 5.20, ND, 3.65.
The variant G49H D91W F95T gave 4.53, ND, ND.
The variant G49K S55Q S88V gave 4.81, ND, 2.98.
The variant N33M G49A Q96D gave 3.72, ND, ND.
The variant G49P N51K P54C gave ND, 4.66, ND.
The variant E23D R28D G49H gave ND, ND, ND.

Picked from the list: the 3 lowest averages where every replicate gave a value.

With Y31H G49D P54N the result was 1.67, 1.72, 1.32.
With E23T G49S the result was 3.12, 2.77, 2.67.
With G49S P54A G94W the result was 3.15, 3.58, 2.62.